# Antibody variant affinities, Ab-14 heavy chain, assay 1

The target is the same throughout: PDVDLGDISGINAS, from the HR2 region of SARS-CoV-2 spike.

Parent scFv Ab-14: VH joined to VL by three GGGGS repeats. Changes lie in the heavy chain CDRs alone.
VH: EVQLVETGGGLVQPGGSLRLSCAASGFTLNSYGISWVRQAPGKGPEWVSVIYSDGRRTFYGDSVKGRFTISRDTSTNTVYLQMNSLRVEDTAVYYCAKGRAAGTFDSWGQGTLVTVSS
VL: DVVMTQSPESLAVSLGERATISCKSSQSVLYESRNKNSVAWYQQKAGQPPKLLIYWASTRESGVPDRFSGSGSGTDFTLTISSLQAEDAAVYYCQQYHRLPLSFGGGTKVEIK

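Phage display of a naive human antibody library on the peptide gave the parent. Library AAYL49 holds single substitutions and randomly drawn double and triple substitutions in the CDRs. AlphaSeq pools MATa yeast showing the antibodies with MATalpha yeast showing the peptide. Pairs that bind mate more often; barcode pairs of the diploids are counted by sequencing. Read counts were normalised to the haploid input and turned into Kd by a linear fit to BCL2-family pairs of known affinity, for each replicate. Mating was done three times.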

Changes read parent residue, position, new residue, counted from the first residue of the VH shown. The Kd shown is the geometric mean over detected replicates; a lower Kd is a better binder. Where no diploid with the target was found in any replicate, the entry reads "no signal": below detection, most likely a poor binder, though not proof of it. Entries are sorted by rising average, undetected variants last. Parent in this assay: reference entry 4.4 nM, copy in this library 13 µM (one replicate of three). Nonspecific signal, from three strains lacking the peptide, appeared in 15% of pairings of library AAYL49, centred on 11 µM (5% of these signals below 680 nM); values are not corrected for it.

changes	Kd (apparent)	seen in
F27D/T28M/N30Q	4.7 nM	3/3
Y52F/G61K	20 nM	3/3
G99M/T104L/D106C	29 nM	3/3
S35H/T58C	31 nM	3/3
Y60N/R100Q/A101N	200 nM	3/3
N30W/V64M/G103S	230 nM	3/3
G26L/T28E/F105R	820 nM	3/3
S31G/G55A/S107T	1.4 µM	2/3
L29A/D62C/A101V	1.5 µM	1/3
N30P/Y52D/F105Q	2.1 µM	1/3
L29E/S35T/A102N	2.4 µM	1/3
R56N/F59R	2.6 µM	3/3
Y32H/V64S/S107P	3.1 µM	2/3
Y52F/S53T	4.2 µM	1/3
G26K/I51Y/G61D	4.2 µM	2/3
F59I/F105N/D106N	4.8 µM	1/3
T58Y/G103N/S107Y	5.0 µM	1/3
G61H/R100W/S107H	10 µM	1/3
V50N/T58E/Y60H	14 µM	1/3
T28L/K65Y/F105M	16 µM	3/3
S31Q/Y60K/R100Q	19 µM	1/3
G33H/G55D/K65T	28 µM	2/3
T28W/S31D/V50G	29 µM	1/3
S31Q/R57E/K65N	31 µM	1/3
S53N/G99H/G103I	42 µM	1/3
Y52C/S53T/Y60I	46 µM	1/3
L29P/G33A/D54I	51 µM	3/3
G33S/S63A/R100H	58 µM	2/3
Y60G/G99M/A102H	65 µM	2/3
Y52K/R57W/A101T	81 µM	1/3
G55V/R56N/T104E	120 µM	3/3
V50H/G55N/R56K	130 µM	2/3
V50E/V64Y/A101V	1.5 mM	1/3
T28E/G99R/D106T	no signal	0/3
I34F/Y60E/A101Q	no signal	0/3
I51W/V64H/K65T	no signal	0/3
Y32R/K65R/G103Y	no signal	0/3
L29M/G103L	no signal	0/3
D54S/V64F/K65Y	no signal	0/3
T28D/G33H/D62N	no signal	0/3
S31G/F59D/S107D	no signal	0/3
R57G/V64N/D106P	no signal	0/3
S35W/G99R/A102R	no signal	0/3
V50R/G61C/D106Y	no signal	0/3
I34Y/S35G/K65D	no signal	0/3
F27Y/G33N/D62S	no signal	0/3
T58P/D62Q/T104K	no signal	0/3
Y52K/R100H	no signal	0/3
F27N/I34F/R57D	no signal	0/3
K65W/A101R/S107P	no signal	0/3
I34T/G55N	no signal	0/3
Y52A/D54S/D62V	no signal	0/3
S53W/G55T/R100N	no signal	0/3
G55A/A102Y/S107V	no signal	0/3
F27E/G103W	no signal	0/3
S35T/R57A/R100P	no signal	0/3
S35V/V50R/F59S	no signal	0/3
I51Y/S53H/D62E	no signal	0/3
L29A/G33Y/Y52V	no signal	0/3
S31G/T104F/F105W	no signal	0/3
G55P/A102I/G103L	no signal	0/3
D54A/F59A/T104G	no signal	0/3
T28C/Y32V/R56N	no signal	0/3
N30L/G61M/T104M	no signal	0/3
Y52D/V64M/G99F	no signal	0/3
F27L/G33S/G103M	no signal	0/3
R100Y/F105E/S107N	no signal	0/3
S31T/S35M/R57G	no signal	0/3
I34L/I51T/G103K	no signal	0/3
R56G/V64P/G103Y	no signal	0/3
G33C/A102D	no signal	0/3

Again, the first 8 entries without any signal:

| changes | Kd (apparent) | seen in |
|---|---|---|
| T28E/G99R/D106T | no signal | 0/3 |
| I34F/Y60E/A101Q | no signal | 0/3 |
| I51W/V64H/K65T | no signal | 0/3 |
| Y32R/K65R/G103Y | no signal | 0/3 |
| L29M/G103L | no signal | 0/3 |
| D54S/V64F/K65Y | no signal | 0/3 |
| T28D/G33H/D62N | no signal | 0/3 |
| S31G/F59D/S107D | no signal | 0/3 |

From the AlphaSeq antibody data of Engelhart et al. 2022 (doi:10.1038/s41597-022-01779-4), copy in the FLAb collection.